# scFv variants of Ab-14 (heavy chain) against a SARS-CoV-2 spike peptide

Reference: Li et al. 2023, doi:10.1038/s41467-023-39022-2. File: FLAb, binding data.

Binding partner: SARS-CoV-2 spike HR2 peptide, sequence PDVDLGDISGINAS.

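The parent was found by panning a naive human phage display library on the peptide. Designed CDR sequences, proposed from the first random library and measured here. Their group label is 14H_GP_Gen (GP: Gaussian process model; Gen: genetic algorithm; a sequence that several methods proposed may carry one label only). Affinity was read by AlphaSeq, a pooled yeast mating assay with surface-displayed partners. The frequency of each diploid, read from paired DNA barcodes, reflects how well the two displayed proteins bind. Read counts were normalised to the haploid input and turned into Kd by a linear fit to BCL2-family pairs of known affinity, for each replicate. Mating was done six times.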

Each scFv is VH, a 15-residue (Gly4Ser)3 linker, VL, as in the parent Ab-14, and differs from it in the CDRs of the heavy chain only.
VH: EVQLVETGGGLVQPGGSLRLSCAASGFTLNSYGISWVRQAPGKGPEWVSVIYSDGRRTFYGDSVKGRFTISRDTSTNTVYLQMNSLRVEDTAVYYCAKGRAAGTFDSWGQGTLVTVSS
VL: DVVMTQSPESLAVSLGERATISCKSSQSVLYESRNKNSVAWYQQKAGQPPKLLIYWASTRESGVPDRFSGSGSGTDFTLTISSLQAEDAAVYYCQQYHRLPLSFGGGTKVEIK

Each variant is given by its three heavy chain CDRs, as the data file delimits them; those of the parent are GFTLNSYGIS, VIYSDGRRTFYGDSVK, GRAAGTFDS.
Values are log10 of the apparent Kd in nM; lower means stronger binding.
A mean of the replicates is given; it leaves out those without a signal.
An entry "ND" has no value in the source: the pair was not observed among the diploids in that replicate. This suggests poor binding but is not conclusive.
Empty control strains, which show no peptide, gave a signal in 1% of pairings with all heavy chain designs; the median was 2.08 and 95% of these signals were weaker than 0.84. No background was subtracted. The control count says in how many pairings with the empty strains this scFv gave a signal, with their mean in brackets.
Values of this round are not directly comparable with the first-round values of the same sequences.
In the paper, a design with two or fewer of six values counts as a poor binder.
Of ten entries with the parent sequence, four were seen in most replicates (averages 0.34 to 2.37), three in one and three in none, so single entries are noisy.

CDR-H1	CDR-H2	CDR-H3	replicates, log10 nM	mean, log10 nM	control signals
KFDLNSYGIS	VIYSDGRRTFYADSVK	GREAGTFDS	0.53 0.59 -0.10 0.02 -0.02 0.09	0.19	1/18 (1.80)
GFDLNSYGIS	VIYSDGRRTFYGDEVK	GKTAGTFDS	-0.08 0.62 0.86 -0.16 0.90 0.46	0.43	1/18 (2.59)
GFDLNSYGIS	VIYSDGRRTFYGDQVK	GNVAGTFDS	-0.10 0.34 0.09 0.20 0.28 0.32	0.19	0/18
GFDLNSYGIS	VIYSDGRRTFYIDQVK	GKAAGTFDS	-0.15 -0.45 -0.09 0.00 0.01 -0.21	-0.15	1/18 (2.34)
GFVLNEYGIS	VIYSDGRRTFYADSVK	GKAAGTFDS	ND 1.26 -0.31 0.91 0.35 1.23	0.69	0/18
MFDLNSYGIS	VIYSDGRRTFYVDSVK	GRTAGTFDS	ND ND ND ND ND ND	ND	0/18
GFDLNSYGIS	VIYSDGRRTFYIDQVK	GNAAGTFDS	0.35 -0.20 1.40 -0.20 1.84 0.49	0.61	0/18
MFWLNEYGIS	VIYSDGRRTFYGDSVK	GRTAGTFDS	ND ND ND ND ND ND	ND	0/18
GFDLNSYGIS	VIYSDGRRTFYHDSVK	GRHAGTFDS	ND 0.84 0.48 0.52 0.53 1.03	0.68	0/18
GKDLNSYGIS	VIYSDGRRTFYGDSVK	GRTAGTFDS	1.01 1.32 0.60 1.47 1.37 1.11	1.15	0/18
GFDLNSYGIS	VIYSDGRRTFYIDSVK	GKVAGTFDS	0.10 1.09 0.33 0.36 -1.14 0.62	0.23	0/18
GFDLNSYGIS	VIYSDGRRTFYGDRVK	GRNAGTFDS	-0.69 -0.57 -0.66 -0.79 -0.44 -0.37	-0.59	0/18
PFDLNSYGIS	VIYSDGRRTFYIDSVK	GRTAGTFDS	1.09 1.46 0.66 1.21 1.63 2.23	1.38	0/18
GFWLNEYGIS	VIYSDGKRTFYGDSVK	GRTAGTFDS	ND 1.11 ND 2.85 ND 1.97	1.98	0/18
GFELNSYGIS	VIYSDGRRTFYADSVK	GRQAGTFDA	0.17 0.77 0.25 0.22 0.02 0.75	0.36	0/18
GFYLNEYGIS	VIYSDGRRTFYGDSVK	GQTAGTFDS	ND ND ND ND ND ND	ND	0/18
GFNLNSYGIS	VIYSDGRRTFYGDSVK	GRTAGTFDV	2.20 1.46 1.24 2.52 1.29 1.23	1.66	0/18
GFELNSYGIS	VIYSDGRRTFYTDSVK	GKQAGTFDS	0.51 0.50 0.18 0.47 0.20 0.51	0.40	0/18
GFSLNSYGIS	VIYSDGRRTFYADQVK	GKTAGTFDS	0.22 0.19 0.12 0.42 0.62 0.53	0.35	0/18
GFDLNSYGIS	VIYSDGRRTFYGDSVK	GKTAGTFDG	0.18 0.40 0.56 -0.02 -0.21 0.41	0.22	0/18
GFSLNSYGIS	VIYSDGRRTFYDDNVK	GRTAGTFDS	0.85 0.16 0.34 0.29 0.12 0.42	0.36	0/18
GFDLNSYGIS	VIYSDGRRTFYIDSVK	GRAAGTFDV	-0.09 0.03 0.33 0.35 0.18 0.36	0.19	0/18
GFHLNSYGIS	VIYSDGRRTFYTDSVK	GQTAGTFDS	ND 0.25 ND 1.21 0.23 ND	0.56	0/18
GFNLNSYGIS	VIYSDGRRTFYGDDVK	GNAAGTFDS	1.01 -0.12 0.13 0.37 0.75 0.56	0.45	1/18 (0.48)
GFDLNSYGIS	VIYSDGRRTFYTDSVK	GKTAGTFDS	-0.29 -0.40 -0.47 -0.25 -0.48 -0.12	-0.34	2/18 (2.88)
GFWLNEYGIS	VIYSDGRRTFYGDSVK	GRTAGTFDK	1.56 1.70 1.64 1.21 1.77 1.61	1.58	0/18
GFELNEYGIS	VIYSDGRRTFYGDSVK	GQTAGTFDS	0.94 0.35 0.60 -0.03 0.53 0.60	0.50	0/18
GFPLNEYGIS	VIYSDGRRTFYGDSVK	GQTAGTFDS	0.93 1.23 1.05 0.35 0.82 0.89	0.88	0/18
GFWLNEYGIS	VIYSDGRRTFYGDSVK	GREAGTFDT	1.10 0.52 0.44 0.52 0.51 0.18	0.54	0/18
GFWLNEYGIS	VIYSDGRRTFYGDSVK	GRQAGTFDT	1.57 1.72 1.57 1.51 1.59 2.16	1.69	1/18 (2.71)
YFTLESYGIS	VIYADGRRTFYGDSVK	GRAAGTFDS	1.78 ND ND 1.30 1.71 ND	1.60	0/18
GFELNSYGIS	VIYSDGRRTFYGDSVK	GTNAGTFDS	0.09 0.25 0.34 -0.10 0.59 0.42	0.27	0/18
KFNLNSYGIS	VIYSDGRRTFYGDSVK	GKQAGTFDS	ND ND ND ND ND ND	ND	0/18
GFTLNSYGIS	VIYSDGLRTFYIDSVK	GNAAGTFDS	ND 1.56 1.44 1.13 0.58 1.71	1.28	0/18
GFELNEYGIS	VIYSDGKRTFYGDSVK	GRTAGTFDS	0.14 0.48 0.54 -0.01 -0.12 0.65	0.28	0/18
GFDLNSYGIS	VIYSDGRRTFYGDQVK	GREAGTFDS	0.59 0.93 -0.05 -0.24 -0.26 1.10	0.34	0/18
GFKLNSYGIS	VIYSDGRRTFYGDQVK	GKTAGTFDS	ND ND ND ND ND ND	ND	0/18
GFDLNSYGIS	VIYSDGRRTFYGDTVK	GRTAGTFDS	ND 1.25 0.60 0.42 1.78 0.10	0.83	1/18 (1.95)
GFDLNSYGIS	VIYSDGRRTFYIDSVK	GQAAGTFDR	0.83 0.72 0.48 0.89 1.09 1.04	0.84	1/18 (1.67)
GFNLNSYGIS	VIYSDGRRTFYGDSVK	GRLAGTFDT	1.27 1.11 1.42 1.76 0.98 1.52	1.34	1/18 (2.12)
PFDLNSYGIS	VIYSDGRRTFYADSVK	GRTAGTFDS	0.25 0.03 0.13 0.17 -0.11 0.46	0.16	0/18
GFWLNEYGIS	VIYSDGRRTFYGDPVK	GRTAGTFDS	ND 1.59 1.53 1.12 1.87 2.13	1.65	0/18
GFDLNSYGIS	VIYSDGRRTFYGDAVK	GKIAGTFDS	ND ND ND ND ND ND	ND	0/18
GFDLNSYGIS	VIYSDGRRTFYADEVK	GNAAGTFDS	ND -0.11 ND 0.01 -0.41 ND	-0.17	0/18
GFDLNEYGIS	VIYSDGRRTFYGDQVK	GRTAGTFDS	ND ND ND ND ND ND	ND	0/18
GFDLNSYGIS	VIYSDGMRTFYVDSVK	GRTAGTFDS	0.56 0.59 0.26 0.46 0.47 0.68	0.50	0/18
MFDLNSYGIS	VIYSDGRRTFYGDSVK	GREAGTFDS	1.85 1.40 0.14 0.66 0.56 1.97	1.10	0/18
MFDLNSYGIS	VIYSDGRRTFYADSVK	GREAGTFDS	-0.36 0.92 -0.03 -0.28 -0.02 -0.35	-0.02	0/18
GFDLNSYGIS	VIYSDGRRTFYQDSVK	GVAAGTFDS	0.63 0.79 0.93 0.58 1.00 2.30	1.04	0/18

The 7 strongest on average among those seen in every replicate, once more:

CDR-H1,CDR-H2,CDR-H3,"replicates, log10 nM","mean, log10 nM",control signals
GFDLNSYGIS,VIYSDGRRTFYGDRVK,GRNAGTFDS,-0.69 -0.57 -0.66 -0.79 -0.44 -0.37,-0.59,0/18
GFDLNSYGIS,VIYSDGRRTFYTDSVK,GKTAGTFDS,-0.29 -0.40 -0.47 -0.25 -0.48 -0.12,-0.34,2/18 (2.88)
GFDLNSYGIS,VIYSDGRRTFYIDQVK,GKAAGTFDS,-0.15 -0.45 -0.09 0.00 0.01 -0.21,-0.15,1/18 (2.34)
MFDLNSYGIS,VIYSDGRRTFYADSVK,GREAGTFDS,-0.36 0.92 -0.03 -0.28 -0.02 -0.35,-0.02,0/18
PFDLNSYGIS,VIYSDGRRTFYADSVK,GRTAGTFDS,0.25 0.03 0.13 0.17 -0.11 0.46,0.16,0/18
KFDLNSYGIS,VIYSDGRRTFYADSVK,GREAGTFDS,0.53 0.59 -0.10 0.02 -0.02 0.09,0.19,1/18 (1.80)
GFDLNSYGIS,VIYSDGRRTFYGDQVK,GNVAGTFDS,-0.10 0.34 0.09 0.20 0.28 0.32,0.19,0/18